## Binding of CDR-mutated scFvs to a peptide of the spike HR2 region

Target peptide (SARS-CoV-2 spike, HR2 region): PDVDLGDISGINAS

The variants keep the light chain, the linker and the frameworks of Ab-14 (scFv order VH, the linker GGGGSGGGGSGGGGS, VL).
VH: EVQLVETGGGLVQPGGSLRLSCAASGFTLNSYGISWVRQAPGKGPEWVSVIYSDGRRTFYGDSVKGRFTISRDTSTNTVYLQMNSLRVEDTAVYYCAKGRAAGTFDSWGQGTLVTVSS
VL: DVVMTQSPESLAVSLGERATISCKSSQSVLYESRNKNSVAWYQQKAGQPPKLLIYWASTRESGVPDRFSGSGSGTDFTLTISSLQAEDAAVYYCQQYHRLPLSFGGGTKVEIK

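The starting antibody came from a phage panning campaign against this peptide. Designed CDR sequences, proposed from the first random library and measured here. Group labels follow the data file (Ctrl: baseline library sampled from a position-specific scoring matrix, with some repeated check sequences; Rand: our label for a block that the file lists under HC and that is probably the random mutants of the ten best first-round binders; En: ensemble of fine-tuned language models; GP: Gaussian process model; GPLM: also part of the Gaussian process libraries; HC: hill climbing; Gen: genetic algorithm; Gibbs: Gibbs sampling; a sequence that several methods proposed may carry one label only). Affinity was read by AlphaSeq, a pooled yeast mating assay with surface-displayed partners. Pairs that bind mate more often; barcode pairs of the diploids are counted by sequencing. A regression on co-assayed BCL2-family reference pairs converts the normalised counts of each replicate to an apparent Kd. There are six technical replicates.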

Substitutions are numbered in sequence along the VH above, starting at 1 (not Kabat). This list holds designs with at most six substitutions. Each Kd is an estimate from the mating assay, the geometric mean of the replicates in which the pair was seen; lower is stronger. "no signal" means that the variant was in the library but no mating with the target was seen in any replicate; the authors take this as a sign of poor binding, and no number exists. The list is sorted by this average, lowest first, undetected variants last. In the paper, a design with two or fewer of six values counts as a poor binder. Three control strains display no target. For all heavy chain designs, 1% of the pairings with them gave a signal, with a median of 120 nM and one signal in twenty below 7.0 nM, so weak values seen in few replicates may be background. For each scFv, signals with the empty controls are counted beside the result. The range of this assay differs from that of the first round, and the authors advise against merging the two.

Variant S31E/G61T/R100V [GP_HC] gave 610 pM (6 of 6 replicates; controls 0 of 18). For T28D/S31E/S53A/G61A/R100V/A101N [En_HC], the assay gave 690 pM (6 of 6 replicates; controls 0 of 18). For T28S/G61A/R100W/S107N [GPLM_Gen], the assay gave 820 pM (4 of 6 replicates; controls 0 of 18). Variant T28E/F59A/A101T [GP_Gen] showed 840 pM (6 of 6 replicates; controls 0 of 18). With T28D/S53A/R100E [GPLM_Gen] the result was 910 pM (6 of 6 replicates; controls 0 of 18). Variant T28S/G61S/R100K/A101L [GP_Gen] showed 930 pM (6 of 6 replicates; controls 0 of 18). With R56M/G61S/R100M/A101T [GP_HC] the result was 1.4 nM (6 of 6 replicates; controls 0 of 18). For T28W/S31E/G61T/A101T [GP_Gibbs], the assay gave 2.2 nM (6 of 6 replicates; controls 0 of 18). Variant T28N/G61A/A101Q/S107A [GP_Gen] gave 2.7 nM (6 of 6 replicates; controls 0 of 18).

Variant N30E/T58V/G61D/R100E/A101N [Ctrl] showed 4.0 nM (6 of 6 replicates; controls 0 of 18). With T28S/S31E/S107Y [GPLM_Gen] the result was 4.5 nM (6 of 6 replicates; controls 1 of 18). Variant T28D/Y32F/G61A/R100D [Ctrl] showed 4.9 nM (6 of 6 replicates; controls 0 of 18). Variant T28W/S31E/S63A/S107I [GP_HC] gave 7.0 nM (3 of 6 replicates; controls 0 of 18). Variant T28D/G61A/S63M/R100E [GP_Gen] showed 8.1 nM (6 of 6 replicates; controls 0 of 18). With G26D/F59A/G61S [GP_HC] the result was 11 nM (6 of 6 replicates; controls 2 of 18). Variant R56V/R100Q/S107V [GP_Gibbs] showed 12 nM (4 of 6 replicates; controls 1 of 18). For T28S/S31Y/R100Q/A101T [GPLM_Gen], the assay gave 16 nM (6 of 6 replicates; controls 0 of 18). For T28S/S31W/G61I/R100H [GPLM_Gibbs], the assay gave 17 nM (5 of 6 replicates; controls 0 of 18).

Variant T28E/R56Q/G61V/S63D/A101T [GP_Gibbs] showed 18 nM (3 of 6 replicates; controls 0 of 18). For R56M/F59W/G61A [Ctrl], the assay gave 20 nM (6 of 6 replicates; controls 1 of 18). Variant T28W/S31E/G61D [GP_HC] showed 20 nM (6 of 6 replicates; controls 1 of 18). Variant T28H/G61D/R100Q/A101L [GPLM_HC] showed 24 nM (2 of 6 replicates; controls 0 of 18). Variant T28D/T104H/D106C [GPLM_HC] showed 42 nM (1 of 6 replicates; controls 0 of 18). For T28G [Ctrl], the assay gave 44 nM (6 of 6 replicates; controls 0 of 18). With S31D/G61H/D106S [GP_HC] the result was 50 nM (3 of 6 replicates; controls 0 of 18). For R56I/G61I/R100E/D106N [Ctrl], the assay gave 85 nM (4 of 6 replicates; controls 0 of 18). Variant T28C/S31D/G61A/A101T/S107E [GP_HC] gave 180 nM (6 of 6 replicates; controls 0 of 18).

For G26Y/T28D/A101Q [GP_Gen], the assay gave 180 nM (1 of 6 replicates; controls 0 of 18). Variant S31R/G61T/R100M/A101F [Rand] gave 190 nM (4 of 6 replicates; controls 0 of 18). With S31Q/R56W/G61S/R100Q/D106T [GP_HC] the result was 220 nM (2 of 6 replicates; controls 1 of 18). With G99I/A101N [Ctrl] the result was 1.9 µM (1 of 6 replicates; controls 2 of 18). For T104F [Ctrl], the assay gave no signal (0 of 6 replicates; controls 0 of 18). Variant G61S/A101E/D106M [GP_HC] gave no signal (0 of 6 replicates; controls 0 of 18). Variant T28E/S31A/A101T [GP_Gen] gave no signal (0 of 6 replicates; controls 0 of 18). Variant G26H/S31Q/G61S/S63L/T104F [Rand] gave no signal (0 of 6 replicates; controls 0 of 18). With T28D/S31E/S53M/G61S/R100N/A101I [Ctrl] the result was no signal (0 of 6 replicates; controls 0 of 18).

With G26L/S31D/F59Q/G61I [GPLM_HC] the result was no signal (0 of 6 replicates; controls 0 of 18). For F27C/T28S/S31E/G103V/S107Q [GP_HC], the assay gave no signal (0 of 6 replicates; controls 0 of 18). Variant R100Q/G103V [Ctrl] gave no signal (0 of 6 replicates; controls 0 of 18). Variant A102P/S107T [Ctrl] gave no signal (0 of 6 replicates; controls 0 of 18).

The opening 5 entries, copied out:

changes,group,Kd (apparent),seen in,empty controls
S31E/G61T/R100V,GP_HC,610 pM,6/6,0/18
T28D/S31E/S53A/G61A/R100V/A101N,En_HC,690 pM,6/6,0/18
T28S/G61A/R100W/S107N,GPLM_Gen,820 pM,4/6,0/18
T28E/F59A/A101T,GP_Gen,840 pM,6/6,0/18
T28D/S53A/R100E,GPLM_Gen,910 pM,6/6,0/18

From the AlphaSeq antibody data of Li et al. 2023 (doi:10.1038/s41467-023-39022-2), copy in the FLAb collection.